A short description of the data set: Water solubility limit by diluting 15 mM stock solutions until optically clear. It is filed as physicochemical. The conditions noted are these: diluting 15 mM stock until optically clear.

The values that follow come from patent publication US8283308B2, “Copolymer-stabilized emulsions” (The Regents of the University of California, priority 2007, dated 2012).

Consider “Poly(L-lysine-HBr)40-b-poly(rac-leucine)20 [K40(rac-L)20]”, for which the “Water Solubility Limit” value came to 3000 µM.
